Results: patent publication US8067582B2 (Bristol-Myers Squibb Company, priority 2007, dated 2011)

Biological target: androgen receptor (AR) (Homo sapiens, UniProt P10275)
Assay: MDA-MB-453 Androgen Receptor Transactivation Assay (PSA-Luc reporter, 3 nM DHT)
Format: cell-based
Settings: MDA-MB-453 cells, antagonism in presence of 3 nM DHT, 48 hour incubation
From the text: Compounds can be tested in a cell based transactivation assay used to measure the antagonism of androgen receptor (AR) transcriptional activity. The transactivation assay provides a means of identifying antagonists that inhibit the effects of the native hormone dihydrotestosterone (DHT). […] The pGL3 PSA-Luc reporter plasmid is comprised of the cDNA for the firefly luciferase gene and the upstream promoter sequences containing the androgen response elements (AREs) of the prostate specific antigen (PSA). This plasmid functions as a reporter for the transcription-modulating activity of the AR. In order to detect antagonists, the transactivation assay is conducted in the presence of constant concentration of the natural AR hormone (DHT) to induce a defined reporter signal. […]
MDA-MB-453 and 22 RV1 cells were maintained in DMEM (Cellgro, Cat. #10-014-CM) or RPMI 1640 (Gibco Cat. #11875-085) respectively and supplemented with 10% FBS (Invitrogen/GIBCO Life Science). […] Following transfection, cells are washed, treated with trypsin, counted, and seeded in a 96-well plate at 30,000 cells per well in DMEM containing 10% Charcoal/Dextran Treated Fetal Bovine Serum (Gibco Cat. #11054-020) for MDA-MB-453 cells or RPMI 1640 (Gibco Cat. #110835) containing 10% FBS (Invitrogen/GIBCO Life Science) for 22 RV1 cells. […]

4-((1S,4S,7S,8R,10S,11R)-10-Hydroxy-8-methyl-6-oxo-3,12-dioxa-5-azatetracyclo[5.3.1.1^1,8.0^4,11]dodec-5-yl)-2-(trifluoromethyl)benzonitrile [Example 39]
IC50: 0.719 µM
